The values below are quoted from earlier work in patent US20220154183A1, “CHMP2A as a Regulator of Natural Killer Cell-Mediated Activity” (The Regents of the University of California, priority 2019, published 2022).

The data set relates to HNSCC.

Consider Cetuximab, for which, for the setting “HNSCC patients, cetuximab monotherapy”, the progression-free survival is listed as 5.6 months. Moreover, for the setting “cetuximab as monotherapy”, the patients responding was 10-15%.
